EC50 data for one molecule are collected here from US20260055202A1 (TEXAS A AND M UNIVERSITY SYSTEM, published 2026).

The target of the assay is T1, human CD20 on Raji B lymphoma cells (human, UniProt P11836 1-297).
T1 construct: whole, on cells; also called hCD20
T1 sequence (looked up): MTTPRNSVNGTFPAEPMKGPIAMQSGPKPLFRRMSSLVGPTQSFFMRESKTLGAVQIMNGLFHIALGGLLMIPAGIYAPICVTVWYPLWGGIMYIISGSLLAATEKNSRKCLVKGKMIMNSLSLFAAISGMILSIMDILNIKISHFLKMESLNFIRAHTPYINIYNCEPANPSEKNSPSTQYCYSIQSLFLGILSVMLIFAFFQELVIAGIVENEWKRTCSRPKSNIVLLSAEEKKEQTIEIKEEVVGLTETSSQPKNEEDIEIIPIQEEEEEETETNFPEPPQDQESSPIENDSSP
The assay can be described thus: flow cytometry on Raji cells (binding/hCD20 receptor occupancy), A488-labeled secondary anti-human IgG Fcγ Ab, MFI against concentration, 5PL fit. The procedure: The experiment was carried out by detection of bound unlabeled anti-hCD20 Abs using A488-labeled secondary anti-human IgG Fcγ Ab. Median fluorescence values from flow cytometry were obtained using FlowJo software. EC₅₀ values were generated from an asymmetric sigmoidal 5PL fit using GraphPad Prism. Data are from one of two independent, representative experiments. […] All statistical analyses were by unpaired t test.
A general note: A flow cytometer gives signals particle by particle.

B1: Obinutuzumab (humanized, afucosylated) (antibody, V domains shown)
VH: QVQLVQSGAEVKKPGSSVKVSCKASGYAFSYSWINWVRQAPGQGLEWMGRIFPGDGDTDYNGKFKGRVTITADKSTSTAYMELSSLRSEDTAVYYCARNVFDGYWLVYWGQGTLVTVSS
VL: DIVMTQTPLSLPVTPGEPASISCRSSKSLLHSNGITYLYWYLQKPGQSPQLLIYQMSNLVSGVPDRFSGSGSGTDFTLKISRVEAEDVGVYYCAQNLELPYTFGGGTKVEIK
In turn, B1 returned an EC50 of 2.7 µg/mL.

For orientation: EC50 means the concentration needed to bring the measured effect to its halfway point. A lower EC50 goes with higher potency in that assay.
